Data on five compounds can be found in patent US9586931B2 (Merck Sharp & Dohme Corp., priority 2012, dated 2017).

This experiment concerns the target recombinant human GST-Syk (Homo sapiens, UniProt P43405). The experiment can be described thus: Homogeneous Time-Resolved Fluorescence (HTRF) assay for the recombinant human Syk enzyme. Conditions: read-out: rhSYK Activity IC50, recombinant human GST-Syk 5 pM, ATP 25 μM, 10-dose titration 10 μM to 0.508 nM. Background: TR-FRET usually uses a lanthanide donor and a delayed reading to cut background.

pIC50: −log10 of the molar value. Like-named read-outs stand apart in the source and are kept apart here.

Broadly, the pIC50 is −log10 of the IC50, conventionally taken in molar units. For the compound `CCc1ccnc(Nc2cc(C)cc(-c3cn(C(C)c4ccc(C(=O)O)cc4)nn3)c2)c1` (centres unmarked), for the setting “tested form: formic acid salt”, the pIC50 was 7.95.

On to `Cc1cc(Nc2nccc(C(F)F)n2)cc(-c2cn(C3CCCC(O)C3(C)O)nn2)c1` (single isomer, unassigned) [29.5], for which the negative-log IC50 (pIC50) was 7.65.

With `Cc1cc(Nc2nccc(C(F)F)n2)cc(-c2cn(C3CCCC(O)C3(C)O)nn2)c1` (single isomer, unassigned) [29.4], the pIC50 is 8.18.

Take `Cc1cc(Nc2nccc(C(F)F)n2)cc(-c2cn(C3CCCC(O)C3(C)O)nn2)c1` (single isomer, unassigned) [29.7]: the pIC50 is 7.94.

As to `Cc1cc(Nc2nccc(C(F)F)n2)cc(-c2cn(C3CCCC(O)C3(C)O)nn2)c1` (single isomer, unassigned) [29.6], the pIC50 is 7.99.
